# Reference: PubChem BioAssay AID588350 (The Scripps Research Institute Molecular Screening Center, 2011)
# The list shows a part of the results, in another mix than the full data. Active and inactive are the calls of the source.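 How the source made its calls: active means mean activation above the mean of solvent-only control wells plus 3 SD (cut at about 22% in these data); inactive means the rest.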
# Assay: frataxin GAA30 reporter activation – cell-based, luminescence, HEK293, lucGAA30, triplicate, counter-screen for GAA850 frataxin promoter activator project, confirmation (AID 588350);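 further: counterscreen of GAA850 promoter hits where activity marks nonselective or luminescence artifacts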
# Conditions: HEK293 lucGAA30 FXN promoter luciferase, 24 h; at 6 µM; stronger effect = higher value; DMSO = 0%, 5 µM ipriflavone = 100%
row,SMILES,activation
1,O=[N+]([O-])c1cc([N+](=O)[O-])c(NCC2CCS(=O)(=O)C2)c([N+](=O)[O-])c1 (stereo unspecified),active: 32.6%
